The numbers were not newly measured in patent US20250340562A1, “CHROMANE IMAGING LIGANDS” (The General Hospital Corporation, priority 2021, published 2025), which cites them from elsewhere.

Chains of the proteins cited; added tags and fusions are not shown. Residues count along the entry.
UniProt P31421, 19-872 limits assumed: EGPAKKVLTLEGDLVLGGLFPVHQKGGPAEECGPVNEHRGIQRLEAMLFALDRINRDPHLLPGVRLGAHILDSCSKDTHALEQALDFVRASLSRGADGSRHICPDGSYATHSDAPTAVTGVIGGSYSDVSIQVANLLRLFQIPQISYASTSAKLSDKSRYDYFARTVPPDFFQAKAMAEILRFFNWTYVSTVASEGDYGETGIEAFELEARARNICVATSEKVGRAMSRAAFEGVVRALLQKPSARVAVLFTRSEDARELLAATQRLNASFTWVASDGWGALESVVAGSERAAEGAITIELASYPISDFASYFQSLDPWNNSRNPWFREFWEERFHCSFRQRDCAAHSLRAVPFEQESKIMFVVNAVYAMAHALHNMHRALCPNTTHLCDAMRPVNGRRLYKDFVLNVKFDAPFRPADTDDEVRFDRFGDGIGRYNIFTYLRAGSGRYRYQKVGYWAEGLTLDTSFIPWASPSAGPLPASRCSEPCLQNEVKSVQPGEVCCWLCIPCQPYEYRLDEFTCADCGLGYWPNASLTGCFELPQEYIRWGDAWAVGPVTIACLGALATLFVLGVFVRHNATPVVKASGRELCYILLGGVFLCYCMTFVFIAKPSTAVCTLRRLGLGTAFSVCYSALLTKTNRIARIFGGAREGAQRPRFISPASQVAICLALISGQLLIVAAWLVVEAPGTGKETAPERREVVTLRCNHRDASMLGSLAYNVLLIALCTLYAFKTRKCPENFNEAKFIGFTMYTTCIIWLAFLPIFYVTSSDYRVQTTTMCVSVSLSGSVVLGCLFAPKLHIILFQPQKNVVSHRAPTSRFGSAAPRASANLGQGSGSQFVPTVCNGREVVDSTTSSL

This series concerns the target mGluR2 (Rattus norvegicus, UniProt P31421). The following applies: rat brain, earlier tracers; tested as the radiolabelled form; cited from earlier work.
Turning to `COc1ccc(-c2cc(C(N)=O)nc3cc(CN4C(=O)CCC4=O)ccc23)c(F)c1`, the SUVmax is recorded as 0.3.

As to `COc1ccc(-c2cc(C(N)=O)ncc2OCc2ccnc(C)c2)c(F)c1`, the SUVmax is given as 0.7.

In the case of `COc1ccc(-c2cc(C(N)=O)ncc2OCc2ccn(C)n2)c(F)c1`, the SUVmax is given as 1.2.
